The source of these data is PubChem BioAssay AID493091 (Sanford-Burnham Center for Chemical Genomics, 2011).

Amino acid sequences for entries named in this document (tags omitted). Residues count along the entry.
UniProt Q9GZU7, 76-261 limits assumed: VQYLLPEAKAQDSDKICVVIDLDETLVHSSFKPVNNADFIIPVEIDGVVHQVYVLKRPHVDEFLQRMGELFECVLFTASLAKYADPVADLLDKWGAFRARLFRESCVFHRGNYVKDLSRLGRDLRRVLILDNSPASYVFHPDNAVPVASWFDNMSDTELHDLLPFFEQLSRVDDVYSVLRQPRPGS

The list shows a part of the results, in another mix than the full data. Some of these compounds have results that are not shown, active ones among them. Calls of active or inactive are those of the source.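 Rule for the calls: active = inhibition above about 50% at 20 µM (limit read from the data); inactive = the rest.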

This test has as its target Carboxy-terminal domain RNA polymerase II polypeptide A small phosphatase 1 (Homo sapiens) (UniProt Q9GZU7). The experiment in a line: Scp-1 phosphatase inhibitors, primary screen, biochemical, colorimetric, uHTS (AID 493091).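 Note: plate controls were DMSO wells with enzyme for no effect and wells lacking enzyme for full effect.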 As to conditions: Recombinant Scp1, phosphopeptide, malachite green phosphate absorbance; at 20 µM; hits give high values. Put shortly:
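Test system: SCP-1 phosphatase catalytic domain, residues 76-261; measured by: colorimetric phosphate reagent with accelerator and stabiliser, absorbance at 630 nm; timing: enzyme reaction 45 min at room temperature, colour 5 min, stabilisation 30 min; also added: Phosphorylated 17-residue peptide substrate; compound dosing: one concentration, 20 µM, with 1.0% DMSO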
Usually inhibition stands for the drop in the measured response relative to a control, in per cent. `CN(C)C1(CNC(=O)c2ccc(Br)cc2)CCCCC1`: the inhibition is inactive: -4.55%.
Take `COc1cc(C(=O)NCC2(N(C)C)CCCCC2)c([N+](=O)[O-])cc1OC`: the inhibition is inactive: -7.31%.
The result for `COc1cccc(C(=O)NCC2(N3CCCCC3)CCCCC2)c1` reads inactive: -1%; that for `COc1ccc(Cl)cc1C(=O)NCC1(N(C)C)CCCCC1`, inactive: -15.4%; that for `O=C(NCC1(N2CCCCC2)CCCCC1)c1cccc(Cl)c1`, inactive: 5.88%.
Take `O=C(OC1CN2CCC1CC2)C(CO)(c1ccccc1)c1ccccc1` (stereo not given): the inhibition was inactive: 2.86%.
To `COc1ccc(Br)c(C(=O)NCC2(N3CCCCC3)CCCCC2)c1` belongs inactive: 2.48%.
To `CC(C)Oc1ccc(C(=O)NCC2(N(C)C)CCCCC2)cc1` belongs inactive: -9.09%; to `O=C(OCCN1CCCC1)C(O)(c1ccccc1)c1ccccc1`, inactive: 2.63%; to `CN(C)c1cccc(C(=O)NCC2(N(C)C)CCCCC2)c1`, inactive: -10.4%.
To `O=C(NCC1(N2CCCCC2)CCCCC1)c1cc([N+](=O)[O-])ccc1Cl` belongs inactive: -5.15%.
Take `CN1[C@@H]2CC[C@H]1CC(OC(=O)C(O)(c1ccccc1)c1ccccc1)C2` (stereo not given in full): the inhibition was inactive: 2.22%.
Take `CCN(CC)CC(C)C(C)OC(=O)C(O)(c1ccccc1)c1ccccc1` (stereo not given): the inhibition was inactive: -5.75%.
The result for `COc1cc(SC)ccc1C(=O)NCC1(N(C)C)CCCCC1` reads inactive: 2.67%; that for `CC(C)N1C(=O)CC2(CCN(CCOC(=O)C(O)(c3ccccc3)c3ccccc3)CC2)C1=O`, inactive: 0.47%; that for `Cc1ccc(C(=O)NCC2(N3CCCCC3)CCCCC2)cc1`, inactive: 6.19%.
Regarding `Cc1ccccc1C(=O)NCC1(N2CCCCC2)CCCCC1`, the inhibition was inactive: -12.9%.
To `CN(C)c1ccc(C(=O)NCC2(N(C)C)CCCCC2)cc1` belongs inactive: 0.4%; to `CN(C)C1CCCC1OC(=O)C(O)(c1ccccc1)c1ccccc1` (stereo not given), inactive: -4.84%; to `C=CCN1CCN(CCOC(=O)C(O)(c2ccccc2)c2ccccc2)CC1`, inactive: -8.1%.
As for `O=C(NCC1(N2CCCCC2)CCCCC1)c1cc(F)c(F)cc1Cl`, the inhibition was inactive: -7.24%.
Consider `COc1ccc(C(=O)NCC2(N(C)C)CCCCC2)cc1`, for which the inhibition was inactive: -0.87%.
To `CCN1CCCC(OC(=O)C2(O)c3ccccc3C=Cc3ccccc32)C1` (stereo not given) belongs inactive: -5.69%; to `Cc1cc(C(=O)NCC2(N3CCCCC3)CCCCC2)ccc1[N+](=O)[O-]`, inactive: -10.1%; to `O=C(NCC1(N2CCCCC2)CCCCC1)c1cccc(Br)c1`, inactive: -5.33%.
